In the assay the target is T1, adrenergic, beta-1 (human) (Homo sapiens, UniProt P08588).
T1 construct: expressed in transfected cells; host or cells: Sf9 insect cells (membranes)
Put plainly: adrenergic, beta-1 (human) binding assay; human recombinant Sf9 cells, membranes, Europium time-resolved fluorescence. It counts as biochemical. The protocol:
The compound of interest is added to the membrane and then incubated for ten minutes. Thereafter, 100 nM GTP-Eu is added and incubated for an additional thirty minutes. Europium fluorescence is measured in a time-resolved fluorometer in order to ascertain any functional antagonist activity at the adrenergic beta 1 site. […] Briefly, Human recombinant Sf9 cells were used, wherein reactions were carried out in 50 mM HEPES [pH 7.4] containing 3 mM MgCl2, 0.1 μM GDP, 10 μm/mL Saoonin, and 1 mM DTT (dithiothreitol). The compound of interest was added to the membrane and then incubated for ten minutes at room temperature. Then, 30 nM of isoproterenol [final] to each well was added and allowed to incubate for an additional 30 minutes. Europium fluorescence was measured in a time-resolved fluorometer in order to ascertain any functional antagonist activity at the adrenergic beta-1 site. […] Briefly, Human recombinant Sf9 cells were used, wherein reactions were carried out in 50 mM HEPES [pH 7.4] containing 3 mM MgCl2, 0.1 μM GDP, 10 μm/mL Saoonin, and 1 mM DTT (dithiothreitol). The compound of interest was added to the membrane and then incubated for ten minutes at room temperature. […] Europium fluorescence was measured in a time-resolved fluorometer in order to ascertain any functional antagonist activity at the adrenergic beta-1 site.

Protein sequences, listed by entry. Tags and fused reporters are not part of them.
UniProt P08588, whole entry: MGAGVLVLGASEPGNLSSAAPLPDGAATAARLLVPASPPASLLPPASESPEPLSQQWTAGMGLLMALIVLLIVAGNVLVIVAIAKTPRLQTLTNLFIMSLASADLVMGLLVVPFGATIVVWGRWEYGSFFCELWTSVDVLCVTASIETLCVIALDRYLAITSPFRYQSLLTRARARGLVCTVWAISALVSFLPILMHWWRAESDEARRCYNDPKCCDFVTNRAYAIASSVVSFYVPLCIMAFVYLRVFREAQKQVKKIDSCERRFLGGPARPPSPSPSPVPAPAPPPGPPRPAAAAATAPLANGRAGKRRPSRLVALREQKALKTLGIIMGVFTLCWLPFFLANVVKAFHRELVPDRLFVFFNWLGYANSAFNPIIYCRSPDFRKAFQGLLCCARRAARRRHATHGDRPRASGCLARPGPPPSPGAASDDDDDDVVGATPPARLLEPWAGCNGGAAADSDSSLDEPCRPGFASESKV

pIC50: −log10 of the molar value.

IC50 data for one compound are collected here from US10251959B2, “Oligomer-beta blocker conjugates” (Nektar Therapeutics, priority 2007, dated 2019).

For orientation: pIC50 means −log10 of the IC50, conventionally taken in molar units. `C=CCc1ccccc1OCC(O)CNC(C)C` (centres unmarked) [Alprenolol, alprenolol, reference compound]: the pIC50 (Table 2, 30 nM isoproterenol) was 7.55 and the pIC50 (Table 4, 30 nM isoproterenol) is 7.89.
